# Measurements taken from PubChem BioAssay AID720555 (National Center for Advancing Translational Sciences (NCATS), 2013).
# By UniProt entry, the sequences of proteins in these tests, tags left out. Where a name states a change or a piece, a line headed by the entry shows the natural chain unless it says otherwise.
# UniProt P54132: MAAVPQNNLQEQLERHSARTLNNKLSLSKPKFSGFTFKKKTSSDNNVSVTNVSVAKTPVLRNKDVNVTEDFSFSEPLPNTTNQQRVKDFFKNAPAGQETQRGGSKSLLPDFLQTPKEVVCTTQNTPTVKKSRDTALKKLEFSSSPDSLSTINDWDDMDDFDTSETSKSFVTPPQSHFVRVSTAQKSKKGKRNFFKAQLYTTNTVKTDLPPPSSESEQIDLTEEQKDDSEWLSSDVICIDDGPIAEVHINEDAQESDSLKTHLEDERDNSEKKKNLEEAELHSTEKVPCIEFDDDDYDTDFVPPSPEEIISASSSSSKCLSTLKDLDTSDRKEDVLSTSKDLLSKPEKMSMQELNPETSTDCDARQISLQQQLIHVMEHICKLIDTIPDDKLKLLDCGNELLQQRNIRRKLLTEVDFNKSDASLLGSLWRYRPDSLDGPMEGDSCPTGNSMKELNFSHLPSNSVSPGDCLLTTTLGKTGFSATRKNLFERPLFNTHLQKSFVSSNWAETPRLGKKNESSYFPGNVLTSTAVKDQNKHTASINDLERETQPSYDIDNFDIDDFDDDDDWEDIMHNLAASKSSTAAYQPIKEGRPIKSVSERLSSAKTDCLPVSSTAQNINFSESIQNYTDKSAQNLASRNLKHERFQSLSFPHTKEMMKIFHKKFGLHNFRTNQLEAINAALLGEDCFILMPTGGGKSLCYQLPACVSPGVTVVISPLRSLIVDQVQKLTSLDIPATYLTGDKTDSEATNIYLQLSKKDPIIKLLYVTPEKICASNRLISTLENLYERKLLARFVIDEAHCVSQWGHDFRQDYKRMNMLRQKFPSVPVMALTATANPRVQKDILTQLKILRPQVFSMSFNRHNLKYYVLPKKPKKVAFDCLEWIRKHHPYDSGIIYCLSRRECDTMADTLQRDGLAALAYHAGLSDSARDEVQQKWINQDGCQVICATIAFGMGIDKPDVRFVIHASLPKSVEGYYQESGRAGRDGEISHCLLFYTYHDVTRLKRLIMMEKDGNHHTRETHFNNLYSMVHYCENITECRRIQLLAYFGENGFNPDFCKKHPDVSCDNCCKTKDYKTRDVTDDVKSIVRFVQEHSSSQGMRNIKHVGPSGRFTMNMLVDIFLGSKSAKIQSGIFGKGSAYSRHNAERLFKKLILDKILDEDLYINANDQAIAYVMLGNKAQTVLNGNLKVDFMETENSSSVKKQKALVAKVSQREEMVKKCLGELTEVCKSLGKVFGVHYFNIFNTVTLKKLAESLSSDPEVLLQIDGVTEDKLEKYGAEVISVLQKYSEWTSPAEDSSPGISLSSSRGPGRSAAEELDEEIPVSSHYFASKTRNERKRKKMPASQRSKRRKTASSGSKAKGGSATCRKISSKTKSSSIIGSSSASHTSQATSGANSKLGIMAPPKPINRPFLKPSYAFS
# Several values for one entry are separate records, joined by “and”; a condition that tells them apart may be missing. Equal values may be shown once. The list shows a part of the results, in another mix than the full data. Records with an inconclusive call do not appear. Activity calls are given as the source filed them. Calls come from the whole dose curve; as a rule, active = well fitted inhibition curve with a large enough effect; inconclusive = small, poorly fitted or top-dose-only effect; inactive = no such curve, though single readings can be large or run the other way.
# Target: RecQ-like DNA helicase BLM (Homo sapiens) (UniProt P54132)
# Assay: qHTS for Inhibitors of Bloom's syndrome helicase (BLM): Helicase DNA unwinding fluorescent orthogonal confirmatory assay for SAR
# Conditions: fluorescence, orthogonal confirmation
# Description: Human RecQ DNA helicases participate in maintenance of genome stability and DNA repair. While other types of helicases have been explored as targets for drug development, members of the RecQ family have remained less well characterized. Mutations of the Bloom helicase gene have been associated with the rare human genetic disease called Bloom syndrome. […] Moreover, identified inhibitors can be used in cells and animal models to examine the consequences of inhibition on the survival of cancer cells where it has been shown that BLM plays an important role.
# A fluorescence-based, biochemical assay in 1536 well format was developed to evaluate inhibition of BLM DNA unwinding activity. This assay was used to screen the MLPCN library. The resulting compounds were subjected to orthogonal and secondary biochemical assays to triage the initial hits, to classify compounds based on mode of action and to derive structure activity relationships (SARs) of candidate effectors. The data herein is the result of the Helicase DNA unwinding fluorescent orthogonal confirmatory assay. […]
# Unwinding assay for the BLM helicase was carried out in a reaction buffer containing 50 mM Tris-HCl pH 7.5, 50mM NaCl, 2mM MgCl2, 2mM ATP, 1mM DTT, and 0.1 mg/ml BSA. Optimal substrate and enzyme concentrations as well as reaction times were determined experimentally. […] Substrate and product bands were quantified using ImageJ. […]
smiles,measurement,value
O=C(Nc1ccc(F)c(C(F)(F)F)c1)Nc1nnc(-c2ccncc2)s1,Potency,active: 2.82 µM and active: 2 µM
